In ChEMBL document CHEMBL4321875, “Potent, Selective, Water Soluble, Brain-Permeable EP2 Receptor Antagonist for Use in Central Nervous System Disease Models” (J Med Chem, 2020):
The source made the active and inactive calls. The rule behind the calls is not given here.

Target: T1, Transcription factor Dp-1 (Homo sapiens) (UniProt Q14186)
T1 sequence (whole entry): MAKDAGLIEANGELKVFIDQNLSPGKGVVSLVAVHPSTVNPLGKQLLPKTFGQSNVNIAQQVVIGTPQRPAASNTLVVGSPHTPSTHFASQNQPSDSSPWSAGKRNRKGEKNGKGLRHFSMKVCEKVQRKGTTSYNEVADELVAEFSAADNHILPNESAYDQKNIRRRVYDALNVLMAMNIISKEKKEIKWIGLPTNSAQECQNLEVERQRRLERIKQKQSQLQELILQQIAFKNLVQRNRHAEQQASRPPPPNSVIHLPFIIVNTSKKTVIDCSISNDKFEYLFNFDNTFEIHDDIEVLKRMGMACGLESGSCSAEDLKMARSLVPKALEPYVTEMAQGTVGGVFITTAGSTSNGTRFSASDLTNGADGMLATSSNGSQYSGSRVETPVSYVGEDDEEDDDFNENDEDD
Assay: Antagonist activity at human DP1 transfected in rat C6 cells assessed as decrease in decrease in BW245C-induced DP1 response by measuring intracellular cAMP incubated for 10 mins followed by BW245C addition and measured after 40 mins by TR-FRET assay
Type: cell-based

inhibition: inactive
SMILES: Cc1cc(C)nc(Nc2ncc(C(=O)NCCc3c(C)[nH]c4ccccc34)cn2)c1
